Data as given in PubChem BioAssay AID2289 (National Center for Advancing Translational Sciences (NCATS), 2010).
Hit rate of the full screen: of about 340,000 compounds, about 3,300 (0.97%) were called active. These results got no clear call from the source, so the numbers are uncertain. The call rests on the fitted dose curve; in most records, active means well fitted inhibition curve with a large enough effect; inconclusive means small, poorly fitted or top-dose-only effect, or effect the other way; inactive means flat fitted curve, though single readings scatter.

Assay: qHTS Assay for Modulators of miRNAs and/or Inhibitors of miR-21; further: nearly all actives have a fitted effect of over 55% in size
Details: HeLa miR-21-FLuc reporter, luciferase luminescence, 48 h; actives lower the signal
Potency means the concentration at half of the fitted maximal effect.

Compound | Potency
ClCCSc1nnc(-c2cccnc2)o1 | inconclusive: 18.5 µM
Cc1ccc2nc3c(c(C)c2c1)CC(C(Cl)Cl)S3 (stereo not drawn) | inconclusive: 13.1 µM
CCOC(=O)c1ccc(NC(=O)C(C)(CCl)SC)cc1 (stereo not drawn) | inconclusive: 18.5 µM
